From PubChem BioAssay AID504444 (National Center for Advancing Translational Sciences (NCATS), 2011) come the findings set out here.

Structures are written as SMILES. The list shows a part of the results, in another mix than the full data. Results filed as inconclusive are left out. A call without a number means that no potency is given here. Active and inactive are the calls of the source. Calls follow the shape of the dose curve; as a rule, active = well fitted inhibition curve with a large enough effect; inconclusive = small, poorly fitted or top-dose-only effect, or effect the other way; inactive = flat fitted curve, though single readings scatter.
Potency is read from the fitted curve at half-maximal effect.

The assay in a line: Nrf2 qHTS screen for inhibitors. Also: nearly all actives have a fitted effect of over 60% in size. To be noted: A549 ARE-Fluc reporter, luciferase luminescence, 18-24 h; series mostly up to 46 µM. For orientation: Quantitative high-throughput screening tests each substance at several concentrations.
For `COc1ccc(C2=NCC(CBr)S2)cc1` (centres undefined), the Potency result was “inactive”.
Take `Cc1ccc(NP(=O)(Oc2ccccc2)Oc2ccccc2)nc1`: the Potency result is “inactive”.
In the case of `O=[N+]([O-])c1cc([N+](=O)[O-])c(CCNc2ccccc2)c([N+](=O)[O-])c1`, the Potency entry is “inactive”.
The entry for `CCc1nc2c(n1)c1c(non1O)c1c2no[n+]1[O-]` is “inactive”.
For the molecule `CC(=O)N1C2C3N(C(C)=O)C1C1N(C(C)=O)C(C(N1C(C)=O)N3C(C)=O)N2C(C)=O`, the Potency result was “inactive”.
For the molecule `O=[N+]([O-])c1cccc2n[nH]nc12`, the Potency entry is “inactive”.
For `CCN(/C(=N/P(=O)(N1CCOCC1)N1CCOCC1)N1CCOCC1)c1ccc(OC)cc1`, the Potency result was “inactive”.
Under `Nc1ccc([As](=O)(O)c2ccc(N)cc2)cc1` stands “inactive”.
The entry for `C[N+]1=C2C=CC=CC=C2SC12C([N+](=O)[O-])=CC([N+](=O)[O-])=C[C-]2[N+](=O)[O-]` (centres undefined) is “inactive”.
Under `CC1CCN(C(=O)Oc2c(Cl)cc(Cl)c3cccnc23)CC1` stands “inactive”; under `CC(C)=N/N=C(\N)N[N+](=O)[O-]`, “inactive”; under `CN(C)C(=O)OCCc1n(C)cc[n+]1C`, “inactive”.
For `O=P1(N(CCCl)CCCl)OCCCS1` (centres undefined), the Potency entry was “inactive”.
The entry for `O=P(/N=c1/nc(-c2ccccc2)n(-c2ccccc2)s1)(Nc1ccccc1)Nc1ccccc1` is “inactive”; for `O=C(Nc1cc([As](=O)(O)O)ccc1O)c1ccccc1` it is “inactive”.
Regarding `O=[N+]([O-])c1ncn(CCn2ncnc2[N+](=O)[O-])n1`, the Potency result was “inactive”.
Under `CC(C)(C)C(=O)NC(Sc1ccncn1)C(Cl)(Cl)Cl` (centres undefined) stands “inactive”; under `O=C(O)CNc1ccc([As](=O)(O)O)cc1`, “inactive”; under `COC(=O)C1(C)COP(=O)(Nc2ccccc2)OC1` (centres undefined), “inactive”.
The entry for `O=[N+]([O-])c1cccc(NC2=NCC(CBr)S2)c1` (centres undefined) is “inactive”.
With `CC(=O)Nc1ccc([As](=O)(O)O)cc1`, the Potency entry was “inactive”.
In the case of `O=C(O)c1ccccc1[As](=O)(O)O`, the Potency entry was “inactive”.
On to `CCCC1OP(N)(=O)OCC1CC` (centres undefined), for which the Potency result is “inactive”.
In the case of `Cc1cc(SC(NC(=O)c2ccc(F)cc2)C(Cl)(Cl)Cl)ncn1` (centres undefined), the Potency result was “inactive”.
The entry for `CCOP(=O)(Nc1ccccc1)OCC` is “inactive”; for `Cc1ccc(NP(=O)(Oc2ccccc2F)Oc2ccccc2F)nc1` it is “inactive”.
Under `Nc1cccc2ccc([As](=O)(O)O)cc12` stands “inactive”; under `Cc1ccc(N/C(=N/P(=O)(N2CCOCC2)N2CCOCC2)N2CCOCC2)cc1`, “inactive”; under `NC(=O)c1cc([N+](=O)[O-])cc([N+](=O)[O-])c1N`, “inactive”.
Under `CN1CCCC(OC(=O)C(c2ccccc2)c2ccccc2)C1` (centres undefined) stands “inactive”; under `Clc1ccc(Cl)c(NC2=NCC(CBr)S2)c1` (centres undefined), “inactive”.
For the molecule `COc1ccccc1OP(=O)(Nc1ccc(C)cn1)Oc1ccccc1OC`, the Potency result was “inactive”.
`Cc1ccc(OP(=O)(Nc2nccs2)Oc2ccc(C)cc2)cc1`: the Potency result was “inactive”.
The entry for `Oc1ccccc1CNc1ccccn1` is “inactive”; for `O=C(NC(Sc1ccncn1)C(Cl)(Cl)Cl)c1ccccc1` (centres undefined) it is “inactive”; for `Nc1cc(N)c2nonc2c1[N+](=O)[O-]` it is “inactive”.
The entry for `CC(C)CC(=O)NC(Sc1ccc(Cl)cc1)C(Cl)(Cl)Cl` (centres undefined) is “inactive”.
The entry for `O=P1(Nc2nc3ccc(Cl)cc3s2)COc2ccccc2O1` (centres undefined) is “inactive”.
In the case of `CC(C)(C)C(=O)NC(Sc1ccccc1)C(Cl)(Cl)Cl` (centres undefined), the Potency result was “inactive”.
`CCc1cc(O)c([N+](=O)[O-])c(C)c1[N+](=O)[O-]`: the Potency result is “inactive”.
The entry for `Cc1ccccc1CN(C)C(=O)COC(=O)C(O)(c1ccccc1)c1ccccc1` is “inactive”.
The entry for `C[C@H]1OP(=O)(Oc2ccccc2)C[C@@H]2O[C@@H]21` (some centres undefined) is “inactive”; for `C[C@@H]1C=CCP(=O)(Oc2ccccc2)O1` (some centres undefined) it is “inactive”.
On to `CC(=O)c1ccc(N2CC2c2ccncc2)cc1` (centres undefined), for which the Potency result was “inactive”.
Under `N#C/C(=C\c1ccc(N(CCBr)CCBr)cc1)C(N)=O` stands active: 25.9 µM.
As for `COC(=O)C1(C)COP(=O)(NCc2ccccc2)OC1` (centres undefined), the Potency result was “inactive”.
As for `CC(=O)Nc1ccc([As](=O)(O)O)c(O)c1`, the Potency entry is “inactive”.
The entry for `CC(=O)Nc1ccc(Oc2c([N+](=O)[O-])cc([N+](=O)[O-])cc2[N+](=O)[O-])cc1` is “inactive”; for `c1ccc(-c2nn[nH]n2)c(-c2nn[nH]n2)c1` it is “inactive”; for `Cc1ccc(NP(=O)(Oc2cccc(C)c2)Oc2cccc(C)c2)nc1` it is “inactive”.
The entry for `O=C(NC1CCS(=O)(=O)C1)NP(=S)(Oc1ccccc1)Oc1ccccc1` (centres undefined) is “inactive”; for `CCNC(=S)/N=C(\N)N[N+](=O)[O-]` it is “inactive”; for `O=P1(N(CCCl)CCCl)OCCC2CCCCN21` (centres undefined) it is “inactive”.
Under `O=C(OC1CN2CCC1CC2)c1ccccc1` (centres undefined) stands “inactive”; under `CCC(=O)N1C2C3N(C(=O)CC)C1C1N(C(=O)CC)C(C(N1C(=O)CC)N3C(=O)CC)N2C(=O)CC`, “inactive”.
For `COC(=O)c1cc2c(s1)N=C(c1ccccc1)N(C)P2(=O)N1CCOCC1` (centres undefined), the Potency entry is “inactive”.
Turning to `CC(=O)NC(SC(=S)N(CC(C)C)CC(C)C)C(Cl)(Cl)Cl` (centres undefined), the Potency entry was “inactive”.
Under `CC(NC(=O)COC(=O)C(O)(c1ccccc1)c1ccccc1)c1ccccc1` (centres undefined) stands “inactive”; under `Cc1ccccc1OP(=O)(Nc1ccccn1)Oc1ccccc1C`, “inactive”.
Under `CN(C)C(=O)Oc1noc2ccccc12` stands “inactive”; under `CN(C)C1(CNC(=O)c2ccc(Cl)c(S(N)(=O)=O)c2)CCCCC1`, “inactive”.
Turning to `O=P(Nc1ccccn1)(c1ccc(Br)cc1)c1ccc(Br)cc1`, the Potency entry is “inactive”.
The entry for `O=P(Nc1nc2ccccc2s1)(c1ccccc1)c1ccccc1` is “inactive”; for `C[C@H]1OP(=O)(Oc2ccccc2)[C@H](O)[C@H](O)[C@H]1N=[N+]=[N-]` (some centres undefined) it is “inactive”.
Under `O=[As](O)(c1ccccc1)c1ccc(O)cc1` stands “inactive”; under `O=[N+]([O-])c1ncn(CCn2cnc([N+](=O)[O-])n2)n1`, “inactive”; under `CC(=O)NC(SC(=S)N(C)C)C(Cl)(Cl)Cl` (centres undefined), “inactive”.
Under `O=[N+]([O-])c1ccc(O)c(/C=N/Nc2ccc([N+](=O)[O-])cc2[N+](=O)[O-])c1` stands “inactive”.
For `O=C(OC1CN2CCC1CC2)c1cccc(Cl)c1` (centres undefined), the Potency result was “inactive”.
Under `C(Cc1nn[nH]n1)Cc1nn[nH]n1` stands “inactive”.
The entry for `Nc1ccc([As](=O)(O)c2ccc([N+](=O)[O-])cc2)cc1` is “inactive”; for `O=P(Nc1nccs1)(c1ccccc1)c1ccccc1` it is “inactive”; for `CC(C)C(=O)NC(Sc1ccccc1)C(Cl)(Cl)Cl` (centres undefined) it is “inactive”.
Under `c1nnnn1CCn1cnnn1` stands “inactive”; under `CCC1=CC2Cc3nc4ccc(Cl)cc4c(N)c3C(C1)C2` (centres undefined), “inactive”.
Consider `O=P1(Nc2ccccn2)COc2ccccc2OC1`, for which the Potency result was “inactive”.
Under `CCOP(=O)(NC(=NC(C)c1ccccc1)NC(C)c1ccccc1)OCC` (centres undefined) stands “inactive”.
Under `CCOP(=O)(Nc1ccc(C)cn1)OCC` stands “inactive”; under `CN(CCCl)Cc1cc(Cl)c(NC2=NCCN2)c(Cl)c1`, “inactive”; under `Clc1n[nH]nc1-c1nn[nH][15n]1`, “inactive”.
The entry for `CC(C)(C)C(=O)NC(Sc1ncccn1)C(Cl)(Cl)Cl` (centres undefined) is “inactive”; for `COc1ccccc1CNC(=O)COC(=O)C(O)(c1ccccc1)c1ccccc1` it is “inactive”; for `CC1(CBr)Cn2c(nc3ccccc3c2=O)S1` (centres undefined) it is “inactive”.
Turning to `Cc1nn(-c2ccccc2)c2c1P(=O)(N1CCOCC1)N(C)C(c1ccccc1)=N2` (centres undefined), the Potency result is “inactive”.
The entry for `Cc1ccc(C(=O)OC2CN3CCC2CC3)cc1` (centres undefined) is “inactive”; for `CC1CCC(C(C)C)C(OP(=O)(Nc2ccccn2)c2ccccc2)C1` (centres undefined) it is active: 14.6 µM; for `CN(C)C1(CNC(=O)c2ccc(S(C)(=O)=O)cc2)CCCCC1` it is “inactive”.
The entry for `O=C(/C=C/c1ccccc1)OC1CN2CCC1CC2` (centres undefined) is “inactive”; for `CCCC1OP(=O)(Nc2ccccc2)OCC1CC` (centres undefined) it is “inactive”; for `O=P1(Nc2ncccn2)COc2ccccc2OC1` it is “inactive”.
`Nc1cccc([As](=O)(O)c2ccccc2)c1`: the Potency entry is “inactive”.
Consider `O=[As](O)(c1cccs1)c1cccs1`, for which the Potency entry is “inactive”.
Under `Cc1ccc(OCC(=O)OC2CN3CCC2CC3)cc1` (centres undefined) stands “inactive”; under `NS(=O)(=O)c1cccc(NC(=O)COC(=O)C(O)(c2ccccc2)c2ccccc2)c1`, “inactive”; under `O=P1(Nc2ccc(Br)cn2)COc2ccccc2OC1`, “inactive”.
The entry for `CCOP1(=S)c2c(C)nn(CCC#N)c2N=C(c2ccccc2F)N1C` (centres undefined) is “inactive”; for `O=P(Nc1nccs1)(Oc1ccccc1)Oc1ccccc1` it is “inactive”.
For `O=P(Nc1nccs1)(c1ccccc1)c1nc2ccccc2s1` (centres undefined), the Potency entry was “inactive”.
Turning to `CS(=O)(=O)c1cc([N+](=O)[O-])c2no[n+]([O-])c2c1`, the Potency result was “inactive”.
As to `O=C(O)COc1ccc([As](=O)(O)O)cc1[N+](=O)[O-]`, the Potency result is “inactive”.
Take `Nc1ccccc1[As](=O)(O)c1ccccc1`: the Potency result was “inactive”.
Regarding `NC(=O)Nc1ccc([As](=O)(O)O)cc1`, the Potency entry was “inactive”.
Turning to `N#CCCN(C(=O)COC(=O)C(O)(c1ccccc1)c1ccccc1)c1ccc(F)cc1`, the Potency result was “inactive”.
Under `CCOP1(=S)c2c(C)nn(CCC#N)c2N=C(c2ccc(F)cc2)N1C` (centres undefined) stands “inactive”.
Under `CN(C(=O)Cc1ccccc1)[C@@H]1CC[C@]2(CCCO2)C[C@H]1N1CCCC1` stands “inactive”; under `CN(C)C(=O)c1cc([N+](=O)[O-])cc2c1-c1c(cc([N+](=O)[O-])cc1[N+](=O)[O-])C2=O`, “inactive”; under `CN(C(=O)Cc1ccc(Cl)c(Cl)c1)[C@H]1CC[C@@]2(CCCO2)C[C@@H]1N1CCCC1`, “inactive”.
As to `O=C(OC1CN2CCC1CC2)c1ccc(Cl)cc1` (centres undefined), the Potency result is “inactive”.
`O=[As](O)(O)c1cccnc1`: the Potency entry was “inactive”.
Under `COc1cc(C(=O)NCC2(N3CCOCC3)CCCCC2)cc(Cl)c1OC(C)C` stands “inactive”; under `CS(=O)(=O)c1ccc(Cl)c(NC(=O)COC(=O)C(O)(c2ccccc2)c2ccccc2)c1`, “inactive”.
Under `Nc1cccc2c([As](=O)(O)O)cccc12` stands “inactive”; under `Cc1ccc(NCCc2c([N+](=O)[O-])cc([N+](=O)[O-])cc2[N+](=O)[O-])cc1`, “inactive”; under `CCCOP(=S)(Nc1nc(N)cc(=O)[nH]1)OCCC`, “inactive”.
Regarding `COc1cc(C2NCCC3(OCCO3)C2(C)C)cc(OC)c1OC` (centres undefined), the Potency entry is “inactive”.
On to `CCOP(=O)(Nc1cccc2ccccc12)OCC`, for which the Potency result is “inactive”.
As for `Cc1c2c(nc3ccccc13)SC(C(Cl)Cl)C2` (centres undefined), the Potency entry was “inactive”.
Under `O=C(OC1CN2CCC1CC2)C12CC3CC(CC(C3)C1)C2` (centres undefined) stands “inactive”; under `Cc1cc(=O)[nH]c(N[N+](=O)[O-])n1`, “inactive”.
